The test concerns the target human recombinant FAAH (Homo sapiens (Human), UniProt O00519). In words: In vitro inhibition of FAAH activity (fluorescent inhibitor screening kit, AMC arachidonoyl amide). It is filed as biochemical. As to conditions: read-out: Inhibition on FAAH activity (IC50).

Sequences of proteins named here, by UniProt entry; tags and fusion partners are left off.
UniProt O00519, whole entry: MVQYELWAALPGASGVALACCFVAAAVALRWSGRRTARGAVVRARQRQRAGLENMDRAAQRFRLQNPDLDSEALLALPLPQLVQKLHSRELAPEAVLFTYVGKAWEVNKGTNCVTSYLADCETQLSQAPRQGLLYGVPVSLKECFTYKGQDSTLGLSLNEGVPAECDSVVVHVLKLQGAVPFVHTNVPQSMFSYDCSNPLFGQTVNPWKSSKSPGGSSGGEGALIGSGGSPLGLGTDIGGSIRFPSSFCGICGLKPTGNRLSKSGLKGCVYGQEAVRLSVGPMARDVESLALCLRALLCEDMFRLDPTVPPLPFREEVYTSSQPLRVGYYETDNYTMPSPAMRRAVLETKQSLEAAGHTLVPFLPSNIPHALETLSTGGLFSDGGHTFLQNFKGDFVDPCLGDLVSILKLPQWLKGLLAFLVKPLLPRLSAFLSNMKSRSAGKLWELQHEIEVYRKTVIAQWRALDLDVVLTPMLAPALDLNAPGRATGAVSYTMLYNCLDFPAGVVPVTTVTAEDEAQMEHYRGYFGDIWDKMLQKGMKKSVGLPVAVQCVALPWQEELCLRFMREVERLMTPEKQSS

`CCCCCCCNC(=O)Oc1cccc(-c2cc(-c3nnco3)ccn2)c1`: the IC50 (as a rule, the midpoint of a concentration-inhibition curve) was in the range of 1 to 10 nM.

(Values after patent publication US20250129027A1 (APOGEE PHARMACEUTICALS, INC., priority 2023, published 2025).)
